Measurements published in ChEMBL document CHEMBL5365467 (J Med Chem, 2023).
Active and inactive are the calls of the source. The rule behind the calls is not given here.

By UniProt entry, the sequences of proteins in these tests, tags left out.
UniProt P10275, whole entry, looked up, stated change not applied: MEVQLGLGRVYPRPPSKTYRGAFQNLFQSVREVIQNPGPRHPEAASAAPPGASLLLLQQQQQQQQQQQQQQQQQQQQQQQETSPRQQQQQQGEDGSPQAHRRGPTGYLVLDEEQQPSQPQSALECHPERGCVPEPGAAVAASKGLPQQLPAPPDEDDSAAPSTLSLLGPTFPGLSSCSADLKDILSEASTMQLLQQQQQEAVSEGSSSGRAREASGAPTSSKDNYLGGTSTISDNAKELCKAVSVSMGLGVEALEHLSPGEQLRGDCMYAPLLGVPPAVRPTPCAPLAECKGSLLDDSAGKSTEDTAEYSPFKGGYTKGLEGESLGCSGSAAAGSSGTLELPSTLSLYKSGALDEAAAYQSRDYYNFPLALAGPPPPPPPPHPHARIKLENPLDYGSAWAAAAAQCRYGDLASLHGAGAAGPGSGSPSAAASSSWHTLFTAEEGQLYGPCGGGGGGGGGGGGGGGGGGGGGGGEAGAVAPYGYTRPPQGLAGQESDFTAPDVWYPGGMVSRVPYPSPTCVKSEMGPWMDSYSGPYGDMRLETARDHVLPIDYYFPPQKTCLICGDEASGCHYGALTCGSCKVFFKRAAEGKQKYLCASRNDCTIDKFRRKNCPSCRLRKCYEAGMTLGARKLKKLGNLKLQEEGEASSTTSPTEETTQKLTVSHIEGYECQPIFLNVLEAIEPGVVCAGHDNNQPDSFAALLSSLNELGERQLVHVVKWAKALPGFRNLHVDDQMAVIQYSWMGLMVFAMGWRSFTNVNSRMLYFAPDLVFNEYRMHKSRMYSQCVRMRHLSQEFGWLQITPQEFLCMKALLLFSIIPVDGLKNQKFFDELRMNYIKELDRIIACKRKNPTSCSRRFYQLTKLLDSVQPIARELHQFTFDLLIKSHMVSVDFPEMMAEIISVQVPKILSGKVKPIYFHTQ
UniProt Q96SW2, whole entry, looked up, stated change not applied: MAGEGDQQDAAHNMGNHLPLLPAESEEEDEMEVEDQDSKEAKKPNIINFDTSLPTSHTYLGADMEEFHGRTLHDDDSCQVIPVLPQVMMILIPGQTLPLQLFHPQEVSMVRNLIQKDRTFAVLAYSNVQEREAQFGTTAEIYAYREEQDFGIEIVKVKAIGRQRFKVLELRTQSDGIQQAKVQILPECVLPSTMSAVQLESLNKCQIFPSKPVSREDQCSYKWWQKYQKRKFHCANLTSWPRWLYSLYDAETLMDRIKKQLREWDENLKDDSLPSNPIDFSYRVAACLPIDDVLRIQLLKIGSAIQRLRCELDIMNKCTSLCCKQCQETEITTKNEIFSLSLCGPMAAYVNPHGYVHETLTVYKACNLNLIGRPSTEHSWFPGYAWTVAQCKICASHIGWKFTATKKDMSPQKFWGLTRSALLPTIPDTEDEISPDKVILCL

Legend:
VCaP [1] = assay: Antitumor activity against human VCaP cells xenografted in po dosed CB17-SCID mouse assessed as inhibition of tumor growth administered for 21 days; format: functional, organism-based; details: dose 10-40 mg/kg, time 21.0 day
LNCaP [2] = assay: Downregulation of TMPRSS2 expression in human LNCaP cells measured for 24 hrs; format: functional, cell-based; details: dose 0.03-1000 nM
[3] = system: Protein cereblon/Androgen receptor (Homo sapiens), P10275+Q96SW2 [UNDEFINED MUTATION]; assay: Induction of AR 873 to 879 deletion mutant degradation in HEK293 cells assessed as induction of androgen receptor degradation at 1 nM measured for 24 hrs by Western blot analysis; format: cell-based
VCaP [4] = assay: Downregulation of KLK3 expression in human VCaP cells measured for 24 hrs; format: functional, cell-based; details: dose 0.03-1000 nM
[5] = target: T1, Protein cereblon/Androgen receptor (Homo sapiens, UniProt P10275+Q96SW2); assay: PROTAC activity at AR/CRBN in human VCaP cells assessed as induction of androgen receptor degradation at 100 nM measured for 3 hrs in presence of thalidomide by Western blot analysis; format: cell-based
[6] = system: Protein cereblon/Androgen receptor (Homo sapiens), P10275+Q96SW2 [UNDEFINED MUTATION]; assay: Induction of AR 388 to 390 deletion mutant degradation in HEK293 cells assessed as induction of androgen receptor degradation at 0.01 to 10 uM measured for 24 hrs by Western blot analysis; format: cell-based; details: dose 0.01-10 µM
[7] = system: Protein cereblon/Androgen receptor (Homo sapiens), P10275+Q96SW2 [K388R]; assay: Induction of AR K388R mutant degradation in HEK293 cells assessed as induction of androgen receptor degradation at 0.01 to 10 uM measured for 24 hrs by Western blot analysis; format: cell-based; details: dose 0.01-10 µM
[8] = target: T1, Protein cereblon/Androgen receptor; assay: PROTAC activity at AR/CRBN in human VCaP cells assessed as induction of androgen receptor degradation at 100 nM measured for 3 hrs in presence of MLN4924 by Western blot analysis; format: cell-based
[9] = target: T1, Protein cereblon/Androgen receptor; assay: PROTAC activity at AR/CRBN in human VCaP cells assessed as induction of androgen receptor degradation at 10 to 100 nM measured after 3 to 6 hr by Western blot analysis; format: cell-based; details: dose 10-100 nM, time 3-6 hrs
[10] = target: T1, Protein cereblon/Androgen receptor; assay: PROTAC activity at AR/CRBN in human VCaP cells assessed as induction of androgen receptor degradation at 0.1 to 1000 nM measured at 24 hrs by proteomics analysis; format: cell-based; details: dose 0.1-1000 nM
LNCaP [11] = assay: Downregulation of KLK3 expression in human LNCaP cells measured for 24 hrs; format: functional, cell-based; details: dose 0.03-1000 nM
[12] = system: Protein cereblon/Androgen receptor (Homo sapiens), P10275+Q96SW2 [UNDEFINED MUTATION]; assay: Induction of AR T878A mutant degradation in HEK293 cells assessed as induction of androgen receptor degradation at 1 nM measured for 24 hrs by Western blot analysis; format: cell-based
[13] = system: Protein cereblon/Androgen receptor (Homo sapiens), P10275+Q96SW2 [V716M]; assay: Induction of AR V716M mutant degradation in HEK293 cells assessed as induction of androgen receptor degradation at 1 nM measured for 24 hrs by Western blot analysis; format: cell-based
VCaP [14] = assay: Downregulation of PLOD2 protein expression in human VCaP cells at 1 uM measured for 24 hrs by proteomics analysis; format: functional, cell-based
[15] = system: Protein cereblon/Androgen receptor (Homo sapiens), P10275+Q96SW2 [UNDEFINED MUTATION]; assay: Induction of AR H875Y mutant degradation in HEK293 cells assessed as induction of androgen receptor degradation at 1 nM measured for 24 hrs by Western blot analysis; format: cell-based
[16] = system: Protein cereblon/Androgen receptor (Homo sapiens), P10275+Q96SW2 [UNDEFINED MUTATION]; assay: Induction of AR W742C mutant degradation in HEK293 cells assessed as induction of androgen receptor degradation at 1 nM measured for 24 hrs by Western blot analysis; format: cell-based
[17] = target: T1, Protein cereblon/Androgen receptor; assay: PROTAC activity at AR/CRBN in human LNCaP cells assessed as induction of androgen receptor degradation at 10 to 100 nM measured after 1 hr by Western blot analysis relative to control; format: cell-based; details: dose 10-100 nM
[18] = target: T1, Protein cereblon/Androgen receptor; assay: PROTAC activity at AR/CRBN in human VCaP cells assessed as induction of androgen receptor degradation at 100 nM measured for 3 hrs in presence of enzalutamide by Western blot analysis; format: cell-based
VCaP [19] = assay: Downregulation of PCLAF protein expression in human VCaP cells at 1 uM measured for 24 hrs by proteomics analysis; format: functional, cell-based
[20] = system: Protein cereblon/Androgen receptor (Homo sapiens), P10275+Q96SW2 [K388R]; assay: Induction of AR K388R mutant degradation in HEK293 cells assessed as induction of androgen receptor degradation at 1 nM measured for 24 hrs by Western blot analysis; format: cell-based
[21] = target: T1, Protein cereblon/Androgen receptor; assay: PROTAC activity at AR/CRBN in HEK293 cells assessed as induction of androgen receptor degradation at 1 nM measured for 24 hrs by Western blot analysis; format: cell-based
VCaP [22] = assay: Downregulation of HAUS8 protein expression in human VCaP cells at 100 nM measured for 24 hrs by proteomics analysis; format: functional, cell-based
[23] = target: T1, Protein cereblon/Androgen receptor; assay: PROTAC activity at AR/CRBN in human LNCaP cells assessed as induction of androgen receptor degradation at 10 to 100 nM measured after 3 to 6 hr by Western blot analysis; format: cell-based; details: dose 10-100 nM, time 3-6 hrs
[24] = system: Protein cereblon/Androgen receptor (Homo sapiens), P10275+Q96SW2 [UNDEFINED MUTATION]; assay: Induction of AR F877L mutant degradation in HEK293 cells assessed as induction of androgen receptor degradation at 1 nM measured for 24 hrs by Western blot analysis; format: cell-based
[25] = target: T1, Protein cereblon/Androgen receptor; assay: PROTAC activity at AR/CRBN in human VCaP cells assessed as induction of androgen receptor degradation at 100 nM measured for 3 hrs in presence of MG132 by Western blot analysis; format: cell-based
VCaP [26] = assay: Downregulation of TMPRSS2 expression in human VCaP cells measured for 24 hrs; format: functional, cell-based; details: dose 0.03-1000 nM
[27] = system: Protein cereblon/Androgen receptor (Homo sapiens), P10275+Q96SW2 [T878A,L702H]; assay: PROTAC activity at AR T878A/L702H double mutant/CRBN in human MDA-PCa-2b cells assessed as induction of androgen receptor degradation by measuring maximum efficacy measured at 24 hrs by Western blot analysis relative to control; format: cell-based
[28] = target: T1, Protein cereblon/Androgen receptor; assay: PROTAC activity at AR/CRBN in human VCaP cells assessed as induction of androgen receptor degradation at 10 to 100 nM measured after 1 hr by Western blot analysis relative to control; format: cell-based; details: dose 10-100 nM

C[C@H]1CC2(CCN(c3ccc(C(=O)N4CCC(CN5Cc6cc7c(cc6C5)C(=O)N(C5CCC(=O)NC5=O)C7=O)CC4)cc3)CC2)CN1c1ccc(C#N)c(Cl)c1 (stereo partly drawn)
Activity (VCaP [1]): Dose-Dependent Effect
Activity (LNCaP [2]): Dose-Dependent Effect
Activity [3]: Active
Activity (VCaP [4]): Dose-Dependent Effect
Activity [5]: Active
Activity [6]: Active
Activity [7]: Active
Activity [8]: Active
Activity [9]: Active
Activity [10]: > 75%
Activity (LNCaP [11]): Dose-Dependent Effect
Activity [12]: Active
Activity [13]: Active
Activity (VCaP [14]): inactive
Activity [15]: Active
Activity [16]: Active
Activity [17]: > 50%
Activity [18]: Active
Activity (VCaP [19]): inactive
Activity [20]: Active
Activity [21]: Active
Activity (VCaP [22]): inactive
Activity [23]: Active
Activity [24]: Active
Activity [25]: Active
Activity (VCaP [26]): Dose-Dependent Effect
Emax [27]: > 95%
Activity [28]: > 50%
